Tests used:
[1] = test system: Salmonidae; assay: Binding affinity to salmon sperm DNA assessed as first order dissociation rate at pH 7.8 by stop-flow technique in presence of 201 mM Na+ ionic strength
How it was run: (§1)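 Salmon sperm DNA–drug complex preformed without SDS at 6 μM drug and 0.36 mM DNA P/l. Dissociation was started by mixing with 0.2% SDS and followed at 480 nm by stop-flow at 15°C. Buffers were 10 mM MES at pH 6.2 and 1 mM PIPES at pH 7.8, with Na+ set by NaCl. First-order k (sec⁻¹) was taken from rate plots over ≥2.5 half-lives.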

[2] = test system: Salmonidae; assay: Binding affinity to salmon sperm DNA assessed as first order dissociation rate at pH 6.2 by stop-flow technique in presence of 5 mM Na+ ionic strength; how it was run: as §1
[3] = test system: Salmonidae; assay: Binding affinity to salmon sperm DNA assessed as first order dissociation rate at pH 7.8 by stop-flow technique in presence of 1 mM Na+ ionic strength; how it was run: as §1
[4] = test system: Salmonidae; assay: Binding affinity to salmon sperm DNA assessed as first order dissociation rate at pH 6.2 by stop-flow technique in presence of 21 mM Na+ ionic strength; how it was run: as §1
[5] = test system: Salmonidae; assay: Binding affinity to salmon sperm DNA assessed as first order dissociation rate at pH 7.8 by stop-flow technique in presence of 21 mM Na+ ionic strength; how it was run: as §1

| K [1] | K [2] | K [3] | K [4] | K [5] | Compound |
| --- | --- | --- | --- | --- | --- |
| 15.4 s⁻¹ | 2.83 s⁻¹ | 3.09 s⁻¹ | 4.72 s⁻¹ | 5.92 s⁻¹ | COc1cccc2c1C(=O)c1c(O)c3c(c(O)c1C2=O)C[C@@](O)(C(C)=O)C[C@@H]3O[C@H]1C[C@H](NC(=O)CNC(=O)CN(C)C)[C@H](O)[C@H](C)O1 |
| 17 s⁻¹ | 5.14 s⁻¹ | 2.96 s⁻¹ | 6.63 s⁻¹ | 8.22 s⁻¹ | CCCN(CCC)CC(=O)N[C@H]1C[C@H](O[C@H]2C[C@](O)(C(C)=O)Cc3c(O)c4c(c(O)c32)C(=O)c2c(OC)cccc2C4=O)O[C@@H](C)[C@H]1O |
| 11.7 s⁻¹ | 2.32 s⁻¹ | 2.7 s⁻¹ | 3.51 s⁻¹ | 4.8 s⁻¹ | COc1cccc2c1C(=O)c1c(O)c3c(c(O)c1C2=O)C[C@@](O)(C(C)=O)C[C@@H]3O[C@H]1C[C@H](NC(=O)CN(C)C)[C@H](O)[C@H](C)O1 |

Reference: ChEMBL document CHEMBL3272314, “Sturcture-activity relationship of daunorubicin and its peptide derivatives” (J Med Chem, 1976)
